{"source": "IntAct's records for PubMed 16352593", "parents": {"B1": {"name": "Myc proto-oncogene protein (Homo sapiens), P01106 (parent)", "chain": "MDFFRVVENQQPPATMPLNVSFTNRNYDLDYDSVQPYFYCDEEENFYQQQQQSELQPPAPSEDIWKKFELLPTPPLSPSRRSGLCSPSYVAVTPFSLRGDNDGGGGSFSTADQLEMVTELLGGDMVNQSFICDPDDETFIKNIIIQDCMWSGFSAAAKLVSEKLASYQAARKDSGSPNPARGHSVCSTSSLYLQDLSAAASECIDPSVVFPYPLNDSSSPKSCASQDSSAFSPSSDSLLSSTESSPQGSPEPLVLHEETPPTTSSDSEEEQEDEEEIDVVSVEKRQAPGKRSESGSPSAGGHSKPPHSPLVLKRCHVSTHQHNYAAPPSTRKDYPAAKRVKLDSVRVLRQISNNRKCTSPRSSDTEENVKRRTHNVLERQRRNELKRSFFALRDQIPELENNEKAPKVVILKKATAYILSVQAEEQKLISEEDLLRKRREQLKHKLEQLRNSCA", "partner": "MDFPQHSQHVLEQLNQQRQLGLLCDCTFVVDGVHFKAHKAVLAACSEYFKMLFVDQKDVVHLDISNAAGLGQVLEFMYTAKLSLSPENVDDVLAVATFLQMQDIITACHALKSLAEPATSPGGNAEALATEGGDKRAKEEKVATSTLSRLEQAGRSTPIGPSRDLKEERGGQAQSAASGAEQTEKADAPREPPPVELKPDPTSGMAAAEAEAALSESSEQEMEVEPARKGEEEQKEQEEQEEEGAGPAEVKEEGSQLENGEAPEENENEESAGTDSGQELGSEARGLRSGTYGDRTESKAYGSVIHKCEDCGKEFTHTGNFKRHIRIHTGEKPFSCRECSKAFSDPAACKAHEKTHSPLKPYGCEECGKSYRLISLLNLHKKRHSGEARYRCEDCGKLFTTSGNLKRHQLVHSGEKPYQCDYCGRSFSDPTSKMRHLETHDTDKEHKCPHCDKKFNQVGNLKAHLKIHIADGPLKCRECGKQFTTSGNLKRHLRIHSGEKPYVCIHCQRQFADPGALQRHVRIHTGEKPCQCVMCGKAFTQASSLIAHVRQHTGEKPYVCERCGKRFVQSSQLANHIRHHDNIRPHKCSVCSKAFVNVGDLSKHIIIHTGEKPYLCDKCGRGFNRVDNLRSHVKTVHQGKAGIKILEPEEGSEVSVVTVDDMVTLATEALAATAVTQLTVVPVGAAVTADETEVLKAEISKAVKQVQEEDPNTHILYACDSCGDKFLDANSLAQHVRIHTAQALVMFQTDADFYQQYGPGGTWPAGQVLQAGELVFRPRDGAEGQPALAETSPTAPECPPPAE"}}, "data": [{"variants_of": "B1", "settings": "with zbt17_human ZBTB17, Q13105", "values": [{"variant": "V409D", "effect of a mutation on the interaction": "decreasing interaction"}]}]}
